Literature values as cited in patent publication US12673052B2, “Combinations for the treatment of cancer” (Exelixis, Inc., priority 2020, dated 2026).

Settings: in vivo, iv; cited from earlier work

## bempegaldesleukin: recombinant human IL-2 conjugated with an average of six releasable chains of polyethylene glycol; CD122-preferential IL-2 pathway agonist
  time of peak plasma concentration of active bempegaldesleukin-related species (2-PEG-IL-2 and 1-PEG-IL-2): 24 to 48 h
